Values of other authors in patent US8013123B2, “Use of precursors of enkephalins and/or their fragments in medical diagnostics” (B.R.A.H.M.S. GmbH, priority 2004, dated 2011).

Sequences of proteins named here, by UniProt entry; tags and fusion partners are left off. A change or cut given only in a name is not applied to a line headed by its entry.
UniProt P01210: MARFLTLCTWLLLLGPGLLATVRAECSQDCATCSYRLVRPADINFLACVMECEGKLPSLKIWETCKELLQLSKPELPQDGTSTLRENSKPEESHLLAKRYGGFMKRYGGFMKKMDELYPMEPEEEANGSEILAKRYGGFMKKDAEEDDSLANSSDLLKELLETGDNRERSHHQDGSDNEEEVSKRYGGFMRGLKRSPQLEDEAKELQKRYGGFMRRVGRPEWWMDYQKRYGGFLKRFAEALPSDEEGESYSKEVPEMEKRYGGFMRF

Tested on: T-helper and cytotoxic T-cells
Conditions: cited from earlier work

leucine enkephalin (YGGFL; Leu-enkephalin; UniProt P01210 230-234, looked up)
proliferation: the proliferation
